Laboratory results published in patent US20180282373.

Molecular target: purified recombinant full-length WDR5 (UniProt P61964)

GST-tagged MLL1 Win-SET domain, MLL1(3745-3969), Win motif arginine to alanine mutant
core complex methyltransferase activity, H3K4me1 and H3K4me2 peptides, mutant against wild type: at least a 2-fold reduction in activity compared to their wild-type counterparts
